Values quoted from earlier work as cited in patent publication US20170369677A1, “MATERIALS FREE OF ENDOCRINE DISRUPTIVE ACTIVITY” (CertiChem, Inc., priority 2006, published 2017).

Conditions: common antioxidants used in plastic formulations, Table P-2

Which “Carcinogenic or Other Toxic Effects” value does the source give for Cc1cc(C(C)(C)C)c(O)c(C(C)(C)C)c1 [BHT, Butylated hydroxytoulene] here?
Its value is “Yes”.
